# Tests used:
# [1] = target: human Axl receptor on human Schwann cells (human) (UniProt P30530)
# [2] = target: human Rse receptor on human Schwann cells (human) (UniProt Q06418)
substance,measurement,setting,value
recombinant human gas6 (ligand),gas6 concentration at which activation of Axl could be detected,[1],1.4 to 14 µM
same,gas6 concentration at which activation of Rse could be detected,[2],1.4 to 14 µM
